Reference: US10328135B2, “Method of obtaining cytolytic T cells by using mutant tumor epitopes” (priority 2010, dated 2019)

Sequences of proteins named here, by UniProt entry; tags and fusion partners are left off. A change or cut given only in a name is not applied to a line headed by its entry.
UniProt Q16655: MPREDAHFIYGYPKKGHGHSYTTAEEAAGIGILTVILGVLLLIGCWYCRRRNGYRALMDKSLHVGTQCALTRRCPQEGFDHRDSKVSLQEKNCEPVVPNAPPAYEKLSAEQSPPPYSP

What was measured:
Type in all cases: cell-based, human
PBMC (CD-8+ population) = assay: PBMC stimulation with NY-ESO-1157-165 peptides and HLA-A2/NY-ESO tetramer/anti-CD8 staining (flow cytometry)
Description: FIG. 7. […] Following a 1-week primary and 1-week secondary peptide stimulation (Week 2), and an additional week (Week 3), cultures were stained with FITC-labeled anti-CD8 antibody and APC-labeled HLA-A2/NY-ESO and analyzed by flow cytometry. Two peptides were tested, NY-ESO-1157-165 (SEQ ID NO:366) wild-type, and NY-ESO-1157-170 (V) (SEQ ID NO:376).
The NY-ESO-1157-165 C165V APL SEQ ID NO:376 was compared to wild-type NY-ESO-I157-165 SEQ ID NO:366 in effectively producing CTL from PBMC.

[1] = tested on: T2 cells pulsed with 1 μM of MART-126-35; assay: In vitro cytotoxicity assay (51Cr release) by polyclonal CTL lines generated with analog peptides; target T2 pulsed with MART-126-35 (M26)
Description: (§1) Following in vitro peptide stimulation of HLA-A2^+ PBMC from melanoma patients MelPt-B, MelPt-C, MelPt-D, MelPt-F and a healthy donor (Healthy-1) MART-126-35 tetramer and CD8 positive cells were sorted and isolated on BD FACSaria. Isolated cells were replicated using 30 ng/ml anti-CD3 antibody (OKT3) and IL-2 at 50 U/ml in the presence of irradiated feeder PBMC and LCL for 2 weeks. IL-2 was replenished every 2-3 days. Following the stimulation, cultures were stained for the generation of MART-126-35 tetramer and CD8 positive cell populations. The polyclonal cell lines were tested for lytic activity and TCR Vβ usage (MelPt-C only), as described in Example 6.
(§2) Target cells were labeled with 100 μCi of ^51Cr and co-cultured with effector cells for 4 hours at 37° C. plus 5% CO2. Targets were melanoma cell lines A375 (HLA-A2^+/NY-ESO-1^+) and Mel 526 (HLA-A2^+/MART-1^+), and T2 cells pulsed with 1 μM of MART-126-35 (positive control) or NY-ESO-1157-165 (negative control). […] Assays were performed in triplicate at a 50:1, 25:1 or 12.5:1 effector to target ratio. Released ^51Cr was measured with a gamma scintillation counter and percent specific lysis was determined by using the formula: percent specific release=(experimental release-spontaneous release)/(maximum release-spontaneous release).
(§3) These cell lines were screened for reactivity to unmodified MART-126-35 peptide pulsed HLA-A2 positive targets and to HLA-A2/MART-1 positive tumor targets at varying effector to target ratios in a standard chromium release assay (Table 10).
(§4) “ND” is not done. T2 is a TAP-deficient cell line that expresses peptide-unbound HLA-A2 molecules unless pulsed extracellularly. Here, T2 was pulsed with NYESO-1157-165 unless indicated otherwise. M26 is an abbreviation for the unmodified MART-126-35 peptide. Numbers represent the percentage specific lysis obtained from each target. T375 is a HLA-A2 positive/MART-1 negative cell line.

[2] = tested on: T2 cells pulsed with NY-ESO-1157-165; assay: In vitro cytotoxicity assay (51Cr release) by polyclonal CTL lines generated with analog peptides; target T2 pulsed with NY-ESO-1157-165 (negative control); details: target T2 (pulsed with NYESO-1157-165)
Description: as §1, §2, §3, §4

[3] = tested on: A375 (HLA-A2+/NY-ESO-1+) melanoma cell line; assay: In vitro cytotoxicity assay (51Cr release) by polyclonal CTL lines generated with analog peptides; target A375
Description: as §1, §2, §3, §4

[4] = tested on: Mel 526 (HLA-A2+/MART-1+) melanoma cell line; assay: In vitro cytotoxicity assay (51Cr release) by polyclonal CTL lines generated with analog peptides; target Mel 526; details: target Mel526
Description: as §1, §2, §3, §4

[5] = CTL line from Healthy1, E/T 12.5
[6] = CTL line from MelPt-B, E/T 12.5
[7] = CTL line from MelPt-C, E/T 12.5
[8] = CTL line from MelPt-D, E/T 12.5

NY-ESO-1157-165 C165V: NY-ESO-1 157-165 APL with C165V substitution (SLLMWITQVF)
Avidity to a CD-8+ population compared with the wild type sequence (PBMC (CD-8+ population); CTL from PBMC, FIG. 7): higher avidity than the wild type sequence
Generation of specific CTL (CD8 / HLA-A2/NY-ESO tetramer) compared with wild type peptide (PBMC (CD-8+ population); Week 2 and Week 3, FIG. 7): better than the wild type peptide

MART-126-35E26S (SAAGIGILTV; UniProt Q16655 26-35, looked up, variant E26S)
Percentage Specific Lysis from polyclonal CTL lines generated with the indicated peptide [1, 5]: 18%
Percentage Specific Lysis from polyclonal CTL lines generated with the indicated peptide ([1]; CTL line from Healthy1, E/T 25): 26%
Percentage Specific Lysis from polyclonal CTL lines generated with the indicated peptide ([1]; CTL line from Healthy1, E/T 50): 34%
Percentage Specific Lysis from polyclonal CTL lines generated with the indicated peptide [1, 6]: 21%
Percentage Specific Lysis from polyclonal CTL lines generated with the indicated peptide ([1]; CTL line from MelPt-B, E/T 25): 31%
Percentage Specific Lysis from polyclonal CTL lines generated with the indicated peptide ([1]; CTL line from MelPt-B, E/T 50): 40%
Percentage Specific Lysis from polyclonal CTL lines generated with the indicated peptide [1, 7]: 54%
Percentage Specific Lysis from polyclonal CTL lines generated with the indicated peptide ([1]; CTL line from MelPt-C, E/T 25): 66%
Percentage Specific Lysis from polyclonal CTL lines generated with the indicated peptide ([1]; CTL line from MelPt-C, E/T 50): 87%
Percentage Specific Lysis from polyclonal CTL lines generated with the indicated peptide [1, 8]: 54%
Percentage Specific Lysis from polyclonal CTL lines generated with the indicated peptide ([1]; CTL line from MelPt-D, E/T 25): 65%
Percentage Specific Lysis from polyclonal CTL lines generated with the indicated peptide ([1]; CTL line from MelPt-D, E/T 50): 87%
Percentage Specific Lysis from polyclonal CTL lines generated with the indicated peptide [2, 5]: 0%
Percentage Specific Lysis from polyclonal CTL lines generated with the indicated peptide ([2]; CTL line from Healthy1, E/T 25): 0%
Percentage Specific Lysis from polyclonal CTL lines generated with the indicated peptide ([2]; CTL line from Healthy1, E/T 50): 0%
Percentage Specific Lysis from polyclonal CTL lines generated with the indicated peptide [2, 6]: 2%
Percentage Specific Lysis from polyclonal CTL lines generated with the indicated peptide ([2]; CTL line from MelPt-B, E/T 25): 0%
Percentage Specific Lysis from polyclonal CTL lines generated with the indicated peptide ([2]; CTL line from MelPt-B, E/T 50): 0^c %
Percentage Specific Lysis from polyclonal CTL lines generated with the indicated peptide [2, 7]: 1%
Percentage Specific Lysis from polyclonal CTL lines generated with the indicated peptide ([2]; CTL line from MelPt-C, E/T 25): 7%
Percentage Specific Lysis from polyclonal CTL lines generated with the indicated peptide ([2]; CTL line from MelPt-C, E/T 50): 2%
Percentage Specific Lysis from polyclonal CTL lines generated with the indicated peptide [2, 8]: 1%
Percentage Specific Lysis from polyclonal CTL lines generated with the indicated peptide ([2]; CTL line from MelPt-D, E/T 25): 8%
Percentage Specific Lysis from polyclonal CTL lines generated with the indicated peptide ([2]; CTL line from MelPt-D, E/T 50): 3%
Percentage Specific Lysis from polyclonal CTL lines generated with the indicated peptide [3, 5]: 8%
Percentage Specific Lysis from polyclonal CTL lines generated with the indicated peptide ([3]; CTL line from Healthy1, E/T 25): 5%
Percentage Specific Lysis from polyclonal CTL lines generated with the indicated peptide ([3]; CTL line from Healthy1, E/T 50): 9%
Percentage Specific Lysis from polyclonal CTL lines generated with the indicated peptide [3, 6]: 8%
Percentage Specific Lysis from polyclonal CTL lines generated with the indicated peptide ([3]; CTL line from MelPt-B, E/T 25): 4%
Percentage Specific Lysis from polyclonal CTL lines generated with the indicated peptide ([3]; CTL line from MelPt-B, E/T 50): 6%
Percentage Specific Lysis from polyclonal CTL lines generated with the indicated peptide [3, 7]: 2%
Percentage Specific Lysis from polyclonal CTL lines generated with the indicated peptide ([3]; CTL line from MelPt-C, E/T 25): 5%
Percentage Specific Lysis from polyclonal CTL lines generated with the indicated peptide ([3]; CTL line from MelPt-C, E/T 50): 8%
Percentage Specific Lysis from polyclonal CTL lines generated with the indicated peptide [3, 8]: 6%
Percentage Specific Lysis from polyclonal CTL lines generated with the indicated peptide ([3]; CTL line from MelPt-D, E/T 25): 7%
Percentage Specific Lysis from polyclonal CTL lines generated with the indicated peptide ([3]; CTL line from MelPt-D, E/T 50): 8%
Percentage Specific Lysis from polyclonal CTL lines generated with the indicated peptide [4, 5]: 10%
Percentage Specific Lysis from polyclonal CTL lines generated with the indicated peptide ([4]; CTL line from Healthy1, E/T 25): 15%
Percentage Specific Lysis from polyclonal CTL lines generated with the indicated peptide ([4]; CTL line from Healthy1, E/T 50): 28%
Percentage Specific Lysis from polyclonal CTL lines generated with the indicated peptide [4, 6]: 30%
Percentage Specific Lysis from polyclonal CTL lines generated with the indicated peptide ([4]; CTL line from MelPt-B, E/T 25): 45%
Percentage Specific Lysis from polyclonal CTL lines generated with the indicated peptide ([4]; CTL line from MelPt-B, E/T 50): 58%
Percentage Specific Lysis from polyclonal CTL lines generated with the indicated peptide [4, 7]: 25%
Percentage Specific Lysis from polyclonal CTL lines generated with the indicated peptide ([4]; CTL line from MelPt-C, E/T 25): 32%
Percentage Specific Lysis from polyclonal CTL lines generated with the indicated peptide ([4]; CTL line from MelPt-C, E/T 50): 41%
Percentage Specific Lysis from polyclonal CTL lines generated with the indicated peptide [4, 8]: 25%
Percentage Specific Lysis from polyclonal CTL lines generated with the indicated peptide ([4]; CTL line from MelPt-D, E/T 25): 32%
Percentage Specific Lysis from polyclonal CTL lines generated with the indicated peptide ([4]; CTL line from MelPt-D, E/T 50): 41%

Marks after values point to notes of the source that are not given here.
